According to patent publication USRE47404E1, “Viral hepatitis treatment” (priority 2006, dated 2019):

How the values were obtained:
AVA5 cells = assay: Cytotoxicity, neutral red dye uptake, AVA5; assay type: cell-based; settings: interferon α-2b in IU/ml
From the text: (§1) Selectivity index=CC50 divided by EC50.

JWT cells = assay: Cytotoxicity, neutral red dye uptake, JWT; assay type: cell-based
From the text: as §1

[1] = system: HCV replication in AVA5 replicon cell line (subgenomic construct of genotype 1b); settings: AVA5 cell cultures (Table 2)
Method: Antiviral activity of nitazoxanide, tizoxanide, interferon α, ribavirin and 2′-C-methyl cytidine was assessed in five different HCV replicon cell lines: (1) AVA5, a subgenomic construct of genotype 1b (Blight et al., 2000, Science 290:1972-1974); (2) H/FL-Neo, a genotype 1a full length construct (Blight et al., 2003, Journal of Virology 77:3181-3190); (3) JWT, a subgenomic construct of genotype 1b (Pfeiffer and Kirkegaard, 2005, Journal of Virology, 79:2346-2355); (4) 4-3-10, a subgenomic construct of genotype 1b, developed by a protocol that involved serial passage of JWT cells in 100 μM for one month followed by 400 μM ribavirin for two weeks (Pfeiffer and Kirkegaard, 2005, Journal of Virology, 79:2346-2355); and (5) RP7, a subgenomic construct of genotype 1b (Elazar et al., 2003, Journal of Virology 77:6055-6061).
Antiviral activity for each test compound was determined as previously described (Okuse et al., 2005, Antiviral Research 65:23-34). Briefly, replicon cell lines were maintained as sub-confluent cultures on 96-well plates. […] Twenty-four hours after the last dose of compound, antiviral activity was determined by blot hybridization analysis of intracellular HCV RNA, and cytotoxicity was assessed by neutral red dye uptake. EC50, EC90, CC50 and selectivity index were calculated for each compound tested in a replicon cell line. […]

[2] = system: RP7 cells (Huh-7 derived); assay: Cytotoxicity, neutral red dye uptake, RP7; assay type: cell-based; settings: interferon α-2b in IU/ml
Method: as §1
The parental replicon-containing cell line was established by electroporation of RNA transcribed in vitro off of the Sca-I-linearized Bart 79I plasmid into Huh-7 cells (Elazar et al., 2003). Bart79I encodes for a second-generation high-efficiency bi-cistronic sub-genomic replicon of genotype 1b containing a single adaptive mutation (S1179I) in the NS5A gene, and the neomycinphosphotransferase gene in the first cistron. The electroporated cells were plated along with naïve Huh-7 feeder cells and grown in medium—DMEM (4.5 g/l glucose, L-glutamine and sodium pyruvate—Mediatech 10-013-CV), 10% fetal bovine serum, 1% Penicillin-streptomycin, 1% L-glutamine (final concentration 2 mM), 1×MEM Non-Essential Amino Acids (100×) (Invitrogen)—and 1 mg/ml G418. After 3 weeks, G418-resistant colonies appeared. One of the resulting colonies was isolated, expanded, passaged in 700 μg/ml G418, and termed RP-7.

H/FL-Neo cells = assay: Cytotoxicity, neutral red dye uptake, H/FL-Neo; assay type: cell-based; settings: interferon α-2b in IU/ml
From the text: as §1

4-3-10 cells = assay: Cytotoxicity, neutral red dye uptake, 4-3-10; assay type: cell-based
From the text: as §1

## Interferon α-2b
AVA5 cells
  CC50: >10000 IU/ml
JWT cells
  CC50: >10000 IU/ml
[1]
  S.I. = CC50/EC50: >5263
[2]
  CC50: >10000 IU/ml
H/FL-Neo cells
  CC50: >10000 IU/ml
4-3-10 cells
  CC50: >10000 IU/ml
